Laboratory results as given in patent publication US5824696A, “Medicaments” (SmithKline Beecham Corporation, priority 1993, dated 1998).

Molecular target: T1, angiotensin receptors in human synovium (Homo sapiens, UniProt P30556)
T1 construct: Human knee synovium was collected at surgery from patients with osteoarthritis or rheumatoid arthritis; from tissue; host or cells: human knee synovium cryostat sections (osteoarthritis, rheumatoid arthritis, chondromalacia patellae)
Experiment: Inhibition of [125I](Sar1, Ile8)AII binding to human synovium, quantitative receptor autoradiography
Parameters: Binding of [125I](Sar1, Ile8) angiotensin II in the presence of antagonist: unit not given here
Details: for Binding of [125I](Sar1, Ile8) angiotensin II in the presence of antagonist: 10 μM antagonist; for nHill values: osteoarthritic synovium
Method: Human knee synovium was collected at surgery from patients with osteoarthritis or rheumatoid arthritis undergoing total knee replacement and patients with chondromalacia patellae undergoing carbon fibre resurfacing of articular cartilage. Tissue samples were immediately embedded in Tissue-Tek (Miles Inc., Elkhart, Ind., USA) and frozen to cork mounts in melting isopentane without prior fixation. Specimens were stored at -40° C. until use. […] thick sections were cut in a cryostat and thaw mounted onto Vectabond™ (Vector Laboratories, Peterborough, U.K.) treated slides, air dried and used immediately, or stored at -20° C. with silica gel for up to 5 days until use.
[…] Excess buffer was removed and sections were incubated for 90 minutes with ligand in buffer B (buffer A plus 1% bovine serum albumin). […] Except where stated, incubations were performed at 22° C.
Films were developed in Kodak D9 for 3 minutes at 15° C. […] Synovial structures were identified, where necessary, by comparison of films with tissue sections counterstained with haematoxylin and eosin. Tissue structures (blood vessels, lining cells and regions of subintimal stroma displaying specific binding) were each delineated interactively. Binding was quantified on the 20 blood vessels in each section with the most dense specific binding.
Specific binding was defined as total minus non-specific binding. Characterisation of specific binding was performed on samples of synovium from patients with osteoarthritis.
Kinetic and equilibrium constants were derived from specific binding values by iterative non-linear regression assuming single site models using GraphPAD Inplot4 (San Diego). […] Values for binding inhibition constants (Ki) and HIll coefficients (nHill) were derived by fitting to sigmoid curves.

CCCCc1nc(Cl)c(CO)n1Cc1ccc(-c2ccccc2-c2nn[nH]n2)cc1 [Losartan]
Inhibition of specific [125I](Sar1, Ile8)AII binding to each structure (10 μM, synovium from patients with osteoarthritis and rheumatoid arthritis): completely inhibited
Binding of [125I](Sar1, Ile8) angiotensin II in the presence of antagonist (blood vessels, OA, total 7.9, nonspecific 2.4): 2.9
Binding of [125I](Sar1, Ile8) angiotensin II in the presence of antagonist (blood vessels, RA, total 14, nonspecific 2.6): 2.8
nHill values (blood vessels): 0.6
Inhibition of binding of [125I](Sar1, Ile8)AII to microvessels, lining cells and stroma (inflamed human synovium): potently and completely inhibited
Binding of [125I](Sar1, Ile8) angiotensin II in the presence of antagonist (lining cells, OA, total 3.6, nonspecific 1.6): 1.7
Binding of [125I](Sar1, Ile8) angiotensin II in the presence of antagonist (lining cells, RA, total 5.7, nonspecific 1.7): 1.8
nHill values (lining cells): 0.9
Binding of [125I](Sar1, Ile8) angiotensin II in the presence of antagonist (stroma, OA, total 2.4, nonspecific 1.5): 1.5
Binding of [125I](Sar1, Ile8) angiotensin II in the presence of antagonist (stroma, RA, total 3.0, nonspecific 1.6): 1.5
nHill values (stroma): 0.6
